Laboratory results as given in patent US4542137A, “Alkylaminodesoxy-1.4;3.6-dianhydrohexitol nitrates substituted by purine bases and pharmaceutical compositions” (priority 1980, dated 1985).
pIC50: −log10 of the molar value. Where two headings read alike, the source gives them in different places.

How the values were obtained:
mongrel cats [1] = experiment: inotropic and frequency-lowering heart circulation effectiveness on mongrel cats, intravenous; type: in vivo; parameters: heart frequency previously: unit not given beside the values; details: cat; for blood pressure afterwards / heart frequency afterwards: after; for blood pressure previously / heart frequency previously: before; for blood pressure Δ / heart frequency Δ: change
mongrel cats [2] = experiment: inotropic and frequency-lowering heart circulation effectiveness on mongrel cats, intraduodenal; type: in vivo; details: cat, 5 mg/kg intraduodenal
mongrel dogs = experiment: circulatory pharmacological effectiveness on narcotised dogs, intravenous; type: in vivo, dog
[3] = test system: isolated rat aorta preparations; experiment: spasmolytic effectiveness on isolated rat aorta preparations (noradrenaline- and potassium chloride-induced contractions)

In the case of `O=[N+]([O-])O[C@H]1CO[C@H]2[C@@H]1OC[C@H]2O[N+](=O)[O-]`, the “blood pressure WD” value (mongrel cats [1]; 0.25 mg/kg i.v.) was 13.00 min, the blood pressure afterwards (mongrel cats [1]; 0.25 mg/kg i.v.) was 81.17 and the heart frequency afterwards (mongrel cats [1]; 0.25 mg/kg i.v.) was 171.67. The blood pressure previously (mongrel cats [1]; 0.25 mg/kg i.v.) was 98.83, the heart frequency previously (mongrel cats [1]; 0.25 mg/kg i.v.) was 165.33 and the “blood pressure Δ” value (mongrel cats [1]; 0.25 mg/kg i.v.) was -17.66. The “heart frequency Δ” value (mongrel cats [1]; 0.25 mg/kg i.v.) was “+6.34”, the “blood pressure WD” value (mongrel cats [1]; 0.50 mg/kg i.v.) was 16.50 min and the blood pressure afterwards (mongrel cats [1]; 0.50 mg/kg i.v.) was 73.67. The heart frequency afterwards (mongrel cats [1]; 0.50 mg/kg i.v.) was 173.33, the blood pressure previously (mongrel cats [1]; 0.50 mg/kg i.v.) was 95.83 and the heart frequency previously (mongrel cats [1]; 0.50 mg/kg i.v.) was 167.00. For the same molecule, the “blood pressure Δ” value (mongrel cats [1]; 0.50 mg/kg i.v.) was -22.16, the “heart frequency Δ” value (mongrel cats [1]; 0.50 mg/kg i.v.) was “+6.33” and the “blood pressure WD” value (mongrel cats [1]; 1.00 mg/kg i.v.) was 16.00 min. For the same molecule, the blood pressure afterwards (mongrel cats [1]; 1.00 mg/kg i.v.) was 69.17, the heart frequency afterwards (mongrel cats [1]; 1.00 mg/kg i.v.) was 174.33 and the blood pressure previously (mongrel cats [1]; 1.00 mg/kg i.v.) was 96.50. For the same molecule, the heart frequency previously (mongrel cats [1]; 1.00 mg/kg i.v.) was 166.67, the “blood pressure Δ” value (mongrel cats [1]; 1.00 mg/kg i.v.) was -27.33 and the “heart frequency Δ” value (mongrel cats [1]; 1.00 mg/kg i.v.) was “+7.66”. The blood pressure afterwards (mongrel cats [1]; 2.50 mg/kg i.v.) was 60.67, the heart frequency afterwards (mongrel cats [1]; 2.50 mg/kg i.v.) was 170.67 and the blood pressure previously (mongrel cats [1]; 2.50 mg/kg i.v.) was 92.50. For the same molecule, the heart frequency previously (mongrel cats [1]; 2.50 mg/kg i.v.) was 162.00, the “blood pressure Δ” value (mongrel cats [1]; 2.50 mg/kg i.v.) was -31.83 and the “heart frequency Δ” value (mongrel cats [1]; 2.50 mg/kg i.v.) was “+8.67”. The blood pressure (mongrel cats [2]; 0 min) was 104.3 ± 7.7 mm. Hg, the frequency (mongrel cats [2]; 0 min) was 174.3 ± 9.3 min⁻¹ and the blood pressure (mongrel cats [2]; 10 min) was 90.4 ± 12.5 mm. Hg. The frequency (mongrel cats [2]; 10 min) was 179.3 ± 7.7 min⁻¹, the “blood pressure Δ” value (mongrel cats [2]; 10 min vs 0) was -13.9 mm. Hg and the blood pressure (mongrel cats [2]; 30 min) was 91.2 ± 10.0 mm. Hg. For the same molecule, the dp/dt (mongrel cats [2]; 30 min) was 766 ± 807 mm sec, the frequency (mongrel cats [2]; 30 min) was 177.7 ± 7.7 min⁻¹ and the “blood pressure Δ” value (mongrel cats [2]; 30 min vs 0) was -13.1 mm. Hg. For the same molecule, the blood pressure (mongrel cats [2]; 60 min) was 94.2 ± 9.2 mm. Hg, the frequency (mongrel cats [2]; 60 min) was 175.0 ± 8.6 min⁻¹ and the “blood pressure Δ” value (mongrel cats [2]; 60 min vs 0) was -10.1 mm. Hg. For the same molecule, the blood pressure (mongrel cats [2]; 120 min) was 95.0 ± 9.6 mm. Hg, the frequency (mongrel cats [2]; 120 min) was 166.7 ± 9.4 min⁻¹ and the “PAP: average pressure in the A. pulmonalis” value (shortened to “PAP: average pressure”) (mongrel dogs; dog i.v. ISDN/9c 1, 1d 0.5 mg/kg, 2 min) was 11.1 mm.Hg. The “PAP: average pressure” value (mongrel dogs; dog i.v. ISDN/9c 1, 1d 0.5 mg/kg, 5 min) was 11.5 mm.Hg, the “PAP: average pressure” value (mongrel dogs; dog i.v. ISDN/9c 1, 1d 0.5 mg/kg, 7 min) was 12.6 mm.Hg and the “PAP: average pressure” value (mongrel dogs; dog i.v. ISDN/9c 1, 1d 0.5 mg/kg, 10 min) was 12.6 mm.Hg. For the same molecule, the “PAP: average pressure” value (mongrel dogs; dog i.v. ISDN/9c 1, 1d 0.5 mg/kg, 15 min) was 12.7 mm.Hg, the “PAP: average pressure” value (mongrel dogs; dog i.v. ISDN/9c 1, 1d 0.5 mg/kg, 20 min) was 12.6 mm.Hg and the “PAP: average pressure” value (mongrel dogs; dog i.v. ISDN/9c 1, 1d 0.5 mg/kg, 25 min) was 13.3 mm.Hg. For the same molecule, the “PAP: average pressure” value (mongrel dogs; dog i.v. ISDN/9c 1, 1d 0.5 mg/kg, 30 min) was 13.5 mm.Hg, the “PAP: average pressure” value (mongrel dogs; dog i.v. ISDN/9c 1, 1d 0.5 mg/kg, 40 min) was 14.0 mm.Hg and the “PAP: average pressure” value (mongrel dogs; dog i.v. ISDN/9c 1, 1d 0.5 mg/kg, 50 min) was 14.0 mm.Hg. The “PAP: average pressure” value (mongrel dogs; dog i.v. ISDN/9c 1, 1d 0.5 mg/kg, 90 min) was 14.6 mm.Hg, the “PAP: average pressure” value (mongrel dogs; dog i.v. ISDN/9c 1, 1d 0.5 mg/kg, 120 min) was 15.0 mm.Hg and the “PAP: average pressure” value (mongrel dogs; dog i.v. ISDN/9c 1, 1d 0.5 mg/kg, 150 min) was 14.6 mm.Hg. For the same molecule, the “PAP: average pressure” value (mongrel dogs; dog i.v. ISDN/9c 1, 1d 0.5 mg/kg, 180 min) was 15.5 mm.Hg, the “PAP: average pressure” value (mongrel dogs; dog i.v., before administration (v)) was 14.3 mm.Hg and the pIC50 ([3]; read-out: ED50 for spasmolytic action, Noradrenaline spasm (50% inhibition), noradrenaline-induced contraction) was 5.89. The pIC50 ([3]; read-out: ED50 for spasmolytic action, potassium chloride spasm (50% inhibition), potassium chloride-induced contraction) was 5.51.
